## Measured affinities in a library of Ab-95 light chain variants

All variants were tested on one target, the spike HR2 peptide PDVDLGDISGINAS (SARS-CoV-2).

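The parent was found by panning a naive human phage display library on the peptide. The library (AAYL52) carries one to three amino acid substitutions per variant, with no insertions or deletions. The assay is AlphaSeq: two haploid yeast populations carry antibody and antigen on their surface. The frequency of each diploid, read from paired DNA barcodes, reflects how well the two displayed proteins bind. Each replicate has its own calibration line, from reference interactions of the BCL2 family. Each pool was mated in three replicate cultures.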

Parent scFv Ab-95: VH joined to VL by a (GGGGS)3 linker. Changes lie in the light chain CDRs alone.
VH: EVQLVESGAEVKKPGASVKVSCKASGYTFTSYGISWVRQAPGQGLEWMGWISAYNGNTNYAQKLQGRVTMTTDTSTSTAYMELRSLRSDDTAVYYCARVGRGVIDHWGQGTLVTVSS
VL: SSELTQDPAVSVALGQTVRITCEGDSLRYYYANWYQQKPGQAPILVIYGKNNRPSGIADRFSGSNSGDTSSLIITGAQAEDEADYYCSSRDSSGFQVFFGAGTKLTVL

Variants are written as CDR1, CDR2 and CDR3 of the light chain (limits as in the source). Parent: EGDSLRYYYAN, GKNNRPS, SSRDSSGFQVF. This list gathers variants with a substitution at D25 (VL, numbered from residue 1). Each Kd is an estimate from the mating assay, the geometric mean of the replicates in which the pair was seen; lower is stronger. A pair that was not seen in any replicate is written "nd"; this usually means weak binding, but a binder can also be missed.

With EGVSLRYYYAN | GKGNRPS | SSFDSSGFQVF the result was nd (0 of 3 replicates). For EGVSLRYYYPN | GKNNRPS | SSRDSSGFAVF, the assay gave 230 nM (3 of 3 replicates). For EGYSLRYYYAN | GKNNRPS | SSRRSDGFQVF, the assay gave 410 nM (3 of 3 replicates). Variant EGKELRQYYAN | GKNNRPS | SSRDSSGFQVF showed 690 nM (3 of 3 replicates). For EGLSLRYYYAN | GKNNNPA | SSRDSSGFQVF, the assay gave 3.2 µM (3 of 3 replicates). Variant EGFSLRYYTAN | GKNNRPS | SSRDSSGWQVF showed 1.4 µM (3 of 3 replicates).

For EGVSVRYYTAN | GKNNRPS | SSRDSSGFQVF, the assay gave 12 µM (1 of 3 replicates). Variant QGQSLRYYYAN | GKNNRPW | SSRDSSGFQVF gave 150 nM (3 of 3 replicates). Variant EGHSLRYYYEN | GKNKRPS | SSRDSSGFQVF showed 12 µM (1 of 3 replicates). Variant EGCSLNYYDAN | GKNNRPS | SSRDSSGFQVF showed 100 nM (3 of 3 replicates). For EGTRLRYYYAN | GKNNRPS | SSRDSSGFQVS, the assay gave 2.0 µM (2 of 3 replicates). Variant EGVSLRYYPAN | GKNNRPS | SSRDSSGFQVF gave 12 nM (3 of 3 replicates).

With EGPHLRYYYAN | GKNNRPS | SSRDSSGFQVG the result was 1.4 µM (3 of 3 replicates). For EGFSLRYYYAN | GKNPRPS | SSPDSSGFQVF, the assay gave 9.6 µM (1 of 3 replicates). With EGSSLMYYYAN | GKNARPS | SSRDSSGFQVF the result was 410 nM (3 of 3 replicates). Variant EGPSLRYYYAN | GKNNRPS | SSRDSSLFQVF gave 140 nM (3 of 3 replicates). For EGLSLRYYGAN | GSNNRPS | SSRDSSGFQVF, the assay gave 47 nM (3 of 3 replicates). For EGVSLRYYYAN | GKNNRPS | SSMDSSGFQVF, the assay gave 210 nM (3 of 3 replicates).

Variant EGVSLRYYYAN | GKNNRAS | SSRDSTGFQVF gave 63 nM (3 of 3 replicates). Variant EGTSHRYYYAN | GKNNRRS | SSRDSSGFQVF gave 15 µM (2 of 3 replicates). With EGCSLMYYYAV | GKNNRPS | SSRDSSGFQVF the result was 20 µM (2 of 3 replicates). Variant EGRSLRYYYAN | GKNNRPS | HSRDSSGSQVF showed 1.3 µM (3 of 3 replicates). Variant EGWSLRYYYAN | GKNNRSS | SSRMSSGFQVF showed 1.9 µM (3 of 3 replicates). For EGRSIRYYYAN | GKNNRPS | SSRDSSGFQVF, the assay gave 610 nM (3 of 3 replicates).

Variant EGESLRYYYAN | GKNNRPS | SSRDSSGFLDF showed 17 µM (1 of 3 replicates). For EGKSLRYYYAN | GKLNRWS | SSRDSSGFQVF, the assay gave 64 µM (2 of 3 replicates). Variant EGKSLRYYYAN | GKNNRPS | SSRPSSMFQVF showed 77 nM (3 of 3 replicates). With EGSSLRYYYAN | GKNNRPS | SSRDSSGFVVK the result was 730 nM (3 of 3 replicates). With EGGSLRYYYAN | GKNNRPA | PSRDSSGFQVF the result was 12 µM (1 of 3 replicates). For EGCSLRYYYAN | GKNNRPS | SSRDSSGFMVP, the assay gave 21 µM (2 of 3 replicates).

With EGESLRYYYAN | GRNNRPS | SSRDHSGFQVF the result was 290 nM (3 of 3 replicates). Variant EGGSLRYCYAN | GKNNRPS | SSRDDSGFQVF showed 2.0 µM (3 of 3 replicates). Variant EGSSLRYYYAN | GKNNRPS | SKRFSSGFQVF showed 180 nM (3 of 3 replicates). Variant EGGSLRYNYAN | GKNNRPS | SSRDSIGFQVF gave 20 nM (3 of 3 replicates). With EGRSLDYYYAN | GKNNRPS | SSRDSSGVQVF the result was 1.2 µM (3 of 3 replicates). With EGISLRYYYAN | GKNNRPS | SSRDSSQFLVF the result was 2.9 µM (3 of 3 replicates).

For EGTSGRYYYAN | GCNNRPS | SSRDSSGFQVF, the assay gave 10 µM (2 of 3 replicates). With EGFSLRYYYAN | IKNNRPS | SSIDSSGFQVF the result was 55 µM (1 of 3 replicates). With EGGSLLYYYAN | GKNNRPS | SSRDSSGFQVN the result was 1.6 µM (1 of 3 replicates). With EGISLRYYEAN | GKNNRPS | SSEDSSGFQVF the result was 2.6 µM (1 of 3 replicates). Variant EGPSLRYYYTN | GKNNRPS | SSRDSSGFSVF gave 77 nM (3 of 3 replicates). With EGPSLRYYYAN | GDNNKPS | SSRDSSGFQVF the result was 110 nM (3 of 3 replicates).

With ERYSLRYYYAN | GKNNRPS | SSDDSSGFQVF the result was 15 µM (2 of 3 replicates).

The first 4 entries again:

Variant EGVSLRYYYAN | GKGNRPS | SSFDSSGFQVF showed nd (0 of 3 replicates).
Variant EGVSLRYYYPN | GKNNRPS | SSRDSSGFAVF showed 230 nM (3 of 3 replicates).
Variant EGYSLRYYYAN | GKNNRPS | SSRRSDGFQVF showed 410 nM (3 of 3 replicates).
Variant EGKELRQYYAN | GKNNRPS | SSRDSSGFQVF showed 690 nM (3 of 3 replicates).

Nonspecific signal, from three strains lacking the peptide, appeared in 28% of pairings of library AAYL52, centred on 8.2 µM (5% of these signals below 800 nM); values are not corrected for it. Parent in this assay: reference entry 200 nM, copy in this library 180 nM.

Reference: Engelhart et al. 2022, doi:10.1038/s41597-022-01779-4. File: FLAb, binding data.